Source: patent US8653040B2, “Compositions containing sesamin-class compound(s) and quercetin glycoside(s)” (Suntory Holdings Limited, priority 2007, dated 2014)

Experiment: Blood (plasma) concentration of sesamin and episesamin in rats after oral administration of the mixture of sesamin-class compounds alone or simultaneously with a test substance (LC-MS/MS)
Conditions: Example 3, 10 mg/kg sesamin-class compounds plus 200 μmol/kg test flavonoid glycoside in 0.5% CMC suspension

αG-hesperidin
change of Cmax of sesamin and episesamin when used in combination: decrease
